## Apparent affinities of Ab-91 variants for a coronavirus HR2 peptide

Antigen: PDVDLGDISGINAS, a 14-residue peptide of the SARS-CoV-2 spike HR2 region.

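The library (AAYL51) carries one to three amino acid substitutions per variant, with no insertions or deletions. The assay is AlphaSeq: two haploid yeast populations carry antibody and antigen on their surface. Binding brings cells together so that they mate, and sequencing counts the barcode pairs among the diploids. Scores were corrected for input abundance and mapped to Kd with protein pairs of known affinity run in the same pool. There are three technical replicates.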

Parent scFv Ab-91: VL joined to VH by a 15-residue (Gly4Ser)3 linker. Changes lie in the heavy chain CDRs alone.
VL: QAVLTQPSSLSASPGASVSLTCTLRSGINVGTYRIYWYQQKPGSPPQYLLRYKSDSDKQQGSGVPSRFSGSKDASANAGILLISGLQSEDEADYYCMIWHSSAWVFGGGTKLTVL
VH: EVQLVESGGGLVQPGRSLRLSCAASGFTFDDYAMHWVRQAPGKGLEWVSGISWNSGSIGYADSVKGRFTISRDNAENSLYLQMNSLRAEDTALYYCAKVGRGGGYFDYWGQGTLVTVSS

Sequences are complete VH domains. Kd is apparent (estimated from mating counts) and averaged on the log scale over replicates with a signal. Smaller is tighter. "not detected" means that the variant was in the library but no mating with the target was seen in any replicate; the authors take this as a sign of poor binding, and no number exists.

VH	Kd	seen in
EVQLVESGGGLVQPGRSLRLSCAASGFTFFDMMMHWVRQAPGKGLEWVSGISWNSGSIGYADSVKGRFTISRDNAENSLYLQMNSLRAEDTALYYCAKVGRGGGYFDYWGQGTLVTVSS	not detected	0/3
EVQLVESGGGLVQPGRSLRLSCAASGVTFDDYAMHWVRQAPGKGLEWVSGISWNSGSIGYADSVKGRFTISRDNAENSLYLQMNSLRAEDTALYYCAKVGRGGGYPDLWGQGTLVTVSS	97 µM	2/3
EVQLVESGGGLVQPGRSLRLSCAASGFTFDDAAMHWVRQAPGKGLEWVSGISWNSGSIHYADSVKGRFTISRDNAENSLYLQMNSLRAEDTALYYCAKVGRGGDYFDYWGQGTLVTVSS	not detected	0/3
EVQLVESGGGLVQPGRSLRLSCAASGFTFDDYALHWVRQAPGKGLEWVSGQSWNSGSIGYADSVKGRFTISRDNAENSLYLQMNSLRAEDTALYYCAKVGRGGGYFDDWGQGTLVTVSS	44 µM	1/3
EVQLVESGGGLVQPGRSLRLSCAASGCTFDDYAMHWVRQAPGKGLEWVSAISWNSGSIGYADSVKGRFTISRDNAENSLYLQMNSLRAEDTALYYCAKVGRGGGYFFYWGQGTLVTVSS	29 µM	1/3
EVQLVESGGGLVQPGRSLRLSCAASGFTKDDYLMHWVRQAPGKGLEWVSGISNNSGSIGYADSVKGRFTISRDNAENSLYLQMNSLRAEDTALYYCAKVGRGGGYFDYWGQGTLVTVSS	2.4 µM	2/3
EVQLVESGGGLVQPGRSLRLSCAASGFTFDDYAMHWVRQAPGKGLEWVSGISGNSGSIGFADSVKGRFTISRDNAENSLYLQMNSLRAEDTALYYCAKVGRGGGYFDSWGQGTLVTVSS	94 nM	3/3
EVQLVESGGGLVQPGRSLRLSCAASGFTFDDYAMHWVRQAPGKGLEWVSGQSWNSGSIGYADSVKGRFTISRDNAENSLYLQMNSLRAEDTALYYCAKVGRGGCYWDYWGQGTLVTVSS	58 µM	3/3
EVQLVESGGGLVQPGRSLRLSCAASGFTFDDYQMHWVRQAPGKGLEWVSIISWNSGSIGYAYSVKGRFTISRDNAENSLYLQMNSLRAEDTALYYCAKVGRGGGYFDYWGQGTLVTVSS	not detected	0/3
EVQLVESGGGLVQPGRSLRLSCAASGFTFDDYAAHWVRQAPGKGLEWVSGGSWNSGSIGYADSVKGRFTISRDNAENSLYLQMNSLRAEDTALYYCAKVGRGGIYFDYWGQGTLVTVSS	not detected	0/3
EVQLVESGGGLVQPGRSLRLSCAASDFTFDDYAMHWVRQAPGKGLEWVSGIDWNSGSIGYNDSVKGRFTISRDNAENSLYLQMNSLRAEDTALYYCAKVGRGGGYFDYWGQGTLVTVSS	120 µM	2/3
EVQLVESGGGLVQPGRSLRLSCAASGFTFDDYAMHWVRQAPGKGLEWVSGGEWNSGSIGVADSVKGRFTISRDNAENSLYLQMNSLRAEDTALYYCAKVGRGGGYFDYWGQGTLVTVSS	not detected	0/3
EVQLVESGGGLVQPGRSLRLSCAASGDTFDDYAMHWVRQAPGKGLEWVSGISNNSGSIGYADSVKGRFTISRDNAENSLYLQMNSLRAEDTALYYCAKVGRGGGYFDCWGQGTLVTVSS	not detected	0/3
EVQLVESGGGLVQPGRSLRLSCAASGGTNDDYAMHWVRQAPGKGLEWVSGISWMSGSIGYADSVKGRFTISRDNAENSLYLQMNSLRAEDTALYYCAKVGRGGGYFDYWGQGTLVTVSS	27 µM	2/3
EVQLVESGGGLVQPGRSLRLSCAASGFTFDDYAMHWVRQAPGKGLEWVSGISWQSGTIGYADSVWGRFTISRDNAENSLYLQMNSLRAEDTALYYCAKVGRGGGYFDYWGQGTLVTVSS	not detected	0/3
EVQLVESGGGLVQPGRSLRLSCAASGFTFDDYMMHWVRQAPGKGLEWVSGISWNAGSIGYADSVKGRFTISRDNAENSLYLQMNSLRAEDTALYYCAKVERGGGYFDYWGQGTLVTVSS	2.9 nM	3/3
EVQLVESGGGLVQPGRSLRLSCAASGFTDDDYAMHWVRQAPGKGLEWVSWIAWNSGSIGYADSVKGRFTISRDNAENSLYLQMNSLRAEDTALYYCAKVGRGGGYFDYWGQGTLVTVSS	35 µM	1/3
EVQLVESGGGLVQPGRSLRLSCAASGFTFDDFAMHWVRQAPGKGLEWVSHISWNSGSIGYASSVKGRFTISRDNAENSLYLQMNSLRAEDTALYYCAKVGRGGGYFDYWGQGTLVTVSS	32 µM	1/3
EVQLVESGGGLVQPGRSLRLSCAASMFTFDDYAMHWVRQAPGKGLEWVSGILWNGGSIGYADSVKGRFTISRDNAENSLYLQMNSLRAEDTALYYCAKVGRGGGYFDYWGQGTLVTVSS	not detected	0/3
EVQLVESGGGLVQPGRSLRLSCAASGMTFDDYAMHWVRQAPGKGLEWVSGISWNSGTIGYADSVKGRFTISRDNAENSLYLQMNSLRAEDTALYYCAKVGRGGGYFDMWGQGTLVTVSS	not detected	0/3
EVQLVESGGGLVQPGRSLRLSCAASGFTFDDYWMHWVRQAPGKGLEWVSGISWNSGSIGYADSVKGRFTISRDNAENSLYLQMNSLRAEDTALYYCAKVGRGGLYFDYWGQGTLVTVSS	not detected	0/3
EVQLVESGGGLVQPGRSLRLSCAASGFTFDDYAMHWVRQAPGKGLEWVSGNSWNSGSIGYADSGKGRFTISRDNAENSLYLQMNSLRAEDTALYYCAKVGYGGGYFDYWGQGTLVTVSS	not detected	0/3

The 2 strongest on average among those seen in every replicate, once more:

VH	Kd	seen in
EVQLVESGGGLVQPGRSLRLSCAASGFTFDDYMMHWVRQAPGKGLEWVSGISWNAGSIGYADSVKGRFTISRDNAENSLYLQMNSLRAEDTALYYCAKVERGGGYFDYWGQGTLVTVSS	2.9 nM	3/3
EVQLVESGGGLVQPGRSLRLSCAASGFTFDDYAMHWVRQAPGKGLEWVSGISGNSGSIGFADSVKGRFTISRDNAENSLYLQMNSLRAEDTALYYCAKVGRGGGYFDSWGQGTLVTVSS	94 nM	3/3

Three control strains display no target. For library AAYL51, 21% of the pairings with them gave a signal, with a median of 34 µM and one signal in twenty below 1.8 µM, so weak values seen in few replicates may be background.

Reference: Engelhart et al. 2022, doi:10.1038/s41597-022-01779-4. File: FLAb, binding data.